This passage reports pKa results from ChEMBL document CHEMBL1122241, “A simplified high-pressure liquid chromatography method for determining lipophilicity for structure-activity relationships” (J Med Chem, 1983).

The series in a line: pKa value is evaluated. The class given is physicochemical.

Take `Nc1ccc(S(=O)(=O)Nc2ncccn2)cc1` [SULFADIAZINE]: the pKa came to 6.52.

A word on the pKa: it is the negative logarithm of the acid dissociation constant. Read a high pKa as a group that holds its proton tightly.
